Reference: the NIST ThermoML archive (doi:10.1016/j.jct.2011.11.025)

Experiment: activity coefficient (dimensionless); of the first substance listed, at infinite dilution; xn = mol fraction of the nth substance listed
Conditions: Liquid, Chromatography, x1 = 0

CCCCOCCCC [dibutyl ether] + CCCCCCn1cc[n+](C)c1.N#C[B-](C#N)(C#N)C#N
Conditions	activity coefficient
318.15 K	7.23
328.15 K	6.98
338.15 K	6.79
348.15 K	6.68
358.15 K	6.52
368.15 K	6.42
